## AlphaSeq binding of Ab-14 heavy chain variants to a spike HR2 peptide

Data: MIT Lincoln Laboratory AlphaSeq set, Li et al. 2023, doi:10.1038/s41467-023-39022-2, as distributed in FLAb.

Antigen: PDVDLGDISGINAS, a 14-residue peptide of the SARS-CoV-2 spike HR2 region.

Each scFv is VH, three GGGGS repeats, VL, as in the parent Ab-14, and differs from it in the CDRs of the heavy chain only.
VH: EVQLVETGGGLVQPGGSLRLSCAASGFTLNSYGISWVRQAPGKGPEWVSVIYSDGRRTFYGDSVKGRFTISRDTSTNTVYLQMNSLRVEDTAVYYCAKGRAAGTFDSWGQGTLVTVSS
VL: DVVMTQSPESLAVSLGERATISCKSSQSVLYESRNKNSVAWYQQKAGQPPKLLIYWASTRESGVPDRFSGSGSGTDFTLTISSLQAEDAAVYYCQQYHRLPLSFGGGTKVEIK

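Phage display of a naive human antibody library on the peptide gave the parent. The variants were designed computationally from a first round of random CDR variants and then made and measured. Group labels follow the data file (Ctrl: baseline library sampled from a position-specific scoring matrix, with some repeated check sequences; Rand: our label for a block that the file lists under HC and that is probably the random mutants of the ten best first-round binders; En: ensemble of fine-tuned language models; GP: Gaussian process model; GPLM: also part of the Gaussian process libraries; HC: hill climbing; Gen: genetic algorithm; Gibbs: Gibbs sampling; a sequence that several methods proposed may carry one label only). Affinity was read by AlphaSeq, a pooled yeast mating assay with surface-displayed partners. After mating in shaken culture at 30 °C for 16 h, diploids were selected and their barcode pairs sequenced. Read counts were normalised to the haploid input and turned into Kd by a linear fit to BCL2-family pairs of known affinity, for each replicate. The assay was run in six technical replicates.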

The parent's heavy chain CDRs are GFTLNSYGIS, VIYSDGRRTFYGDSVK, GRAAGTFDS; each variant's own CDRs replace them letter for letter. Values are log10 of the apparent Kd in nM; lower means stronger binding. A mean of the replicates is given; it leaves out those without a signal. "nd" means that the variant was in the library but no mating with the target was seen in any replicate; the authors take this as a sign of poor binding, and no number exists. In the paper, a design with two or fewer of six values counts as a poor binder. A sequence measured in both rounds can read differently, since the two assays cover different ranges. Nonspecific signal, from three strains lacking the peptide, appeared in 1% of pairings of all heavy chain designs, centred on 2.08 (5% of these signals below 0.84); values are not corrected for it. Also given: how often the same scFv was detected with the empty control strains. The parent sequence was in this pool as ten entries: three were never detected, three once, and four in most replicates, with averages from 0.34 to 2.37.

Result 0.91 (6 of 6 replicates; controls 0 of 18), variant GFDLNEYGIS / VIYADGRRTAYTDSVK / GENAGTFDI [En_Gen].
Result 1.41 (2 of 6 replicates; controls 0 of 18), variant GFELNSYGIS / VIYSDGRRTFYIDSVK / GDAAGTFDS [GPLM_Gibbs].
Result nd (0 of 6 replicates; controls 0 of 18), variant GFTLNSYGIS / VIYSDGRRTSYGDNVK / GRMAGTFDS [Ctrl].
Result nd (0 of 6 replicates; controls 0 of 18), variant GFTLNQYGIE / VIYSDGRRTFYSDSVK / GRAAGFFDS [Rand].
Result 0.04 (6 of 6 replicates; controls 0 of 18), variant GFSLNEYGIS / VIYSDGRRTFYSDSVK / GQPAGTFDS [GP_HC].
Result 1.45 (5 of 6 replicates; controls 0 of 18), variant GFNLNSYGIS / VIYSDGRRTFYGDSVK / GQAAGTFDS [GPLM_Gen].
Result 1.54 (6 of 6 replicates; controls 0 of 18), variant GFTLLSYGIS / VIYADGRRTFYQDKVR / GREAGTFDS [Ctrl].
Result 0.12 (6 of 6 replicates; controls 0 of 18), variant GFDLDEYGIS / VIYADGRRTFYADSVK / GELAGTFDM [En_HC].
Result 0.90 (6 of 6 replicates; controls 0 of 18), variant GFDLNSYGIS / VIYSDGRRTFYGDRVK / GWTAGTFDS [GP_Gen].
Result nd (0 of 6 replicates; controls 0 of 18), variant GFTLMSYGIS / VIYSDGRRTFYNDSVK / GRAAGQFDS [Ctrl].
Result 1.41 (5 of 6 replicates; controls 0 of 18), variant GFELNSYGIS / VIYSDGRRTFYGDSVK / GVLAGTFDL [GP_Gibbs].
Result nd (0 of 6 replicates; controls 0 of 18), variant GFDLNEYGIS / VIYADGVRTAYQNQVK / GNIDGSFTF [En_Gibbs].
Result 0.12 (2 of 6 replicates; controls 0 of 18), variant GFSLNEYGIS / VIYSDGRRTFYWDSVK / GRTAGTFDS [GPLM_Gen].
Result -0.03 (6 of 6 replicates; controls 1 of 18), variant GFSLNDYGIS / VIYSDGRRTFYADSVK / GRQAGTFDS [GPLM_Gibbs].
Result 0.73 (6 of 6 replicates; controls 0 of 18), variant GFQLNNYGIS / VIYSDGRRTFYGDSVK / GRTAGTFDS [GPLM_Gen].
Result -0.39 (6 of 6 replicates; controls 0 of 18), variant GFDLNEYGIS / VIYADGVRTAYAESVK / GNNAGTFDV [En_Gen].
Result 3.32 (2 of 6 replicates; controls 1 of 18), variant GDSLNEYGIS / VIYADGLRSKYADKFK / GQEAGYFGV [En_Gibbs].
Result 0.22 (6 of 6 replicates; controls 0 of 18), variant GFTLNEYGIS / VIYSDGRRTFYTDSVK / GRFAGTFDA [GPLM_HC].
Result 0.15 (6 of 6 replicates; controls 1 of 18), variant GFDLNSYGIS / VIYSDGRRTFYVDDVK / GRAAGTFDV [GP_Gibbs].
Result nd (0 of 6 replicates; controls 0 of 18), variant GFTLDEYGIS / VIYSDGRRTFYGDSVK / GRAADTFDW [Ctrl].
Result 1.76 (1 of 6 replicates; controls 0 of 18), variant GFSLNSYGIS / VIYSDGRRTFYQDSVK / GVAAGTFDS [GPLM_Gen].
Result nd (0 of 6 replicates; controls 1 of 18), variant GFDLNLYGIS / VLYSDGRRTFYGDSVK / GRAAGWFNS [Rand].
Result 1.65 (6 of 6 replicates; controls 1 of 18), variant GFSLNQYGIS / VIYSDGRRTFYTDSVK / GRAAGTFDS [GPLM_HC].
Result nd (0 of 6 replicates; controls 0 of 18), variant GFTLNEYGIS / VIYMDGRRTFYGDSVK / GDAAGTFDS [Ctrl].
Result 2.11 (2 of 6 replicates; controls 0 of 18), variant GFTLNSYGIS / VIYSDGRRTFYQDSVK / GRAAGTFDD [Ctrl].
Result 1.62 (3 of 6 replicates; controls 0 of 18), variant GFTLNSYGIS / VIYSDGRRMFYGDSVK / GNAAGTFDS [Ctrl].
Result 0.93 (6 of 6 replicates; controls 0 of 18), variant GFDLNTYGIS / VIYSDGRRTFYGDSVK / GQAAGTFDS [GPLM_Gibbs].
Result nd (0 of 6 replicates; controls 0 of 18), variant GFTLNEYGIS / VIYSDGRRTFYGDSVK / GRYAGTFIS [GPLM_HC].
Result 0.71 (6 of 6 replicates; controls 0 of 18), variant GFTLNSYGIS / VIYSDGKRTFYADSVK / GQAAGTFDL [GP_Gen].
Result 0.61 (6 of 6 replicates; controls 1 of 18), variant GFNLNSYGIS / VIYSDGRRTFYGDSVK / GQTAGTFDL [GP_Gen].
Result nd (0 of 6 replicates; controls 0 of 18), variant GFTLNEYGIS / VIYSDGRRTFYGDDVK / GRAAVTFDT [GP_HC].

The last 5 entries again:

With GFDLNTYGIS / VIYSDGRRTFYGDSVK / GQAAGTFDS [GPLM_Gibbs] the result was 0.93 (6 of 6 replicates; controls 0 of 18).
With GFTLNEYGIS / VIYSDGRRTFYGDSVK / GRYAGTFIS [GPLM_HC] the result was nd (0 of 6 replicates; controls 0 of 18).
With GFTLNSYGIS / VIYSDGKRTFYADSVK / GQAAGTFDL [GP_Gen] the result was 0.71 (6 of 6 replicates; controls 0 of 18).
With GFNLNSYGIS / VIYSDGRRTFYGDSVK / GQTAGTFDL [GP_Gen] the result was 0.61 (6 of 6 replicates; controls 1 of 18).
With GFTLNEYGIS / VIYSDGRRTFYGDDVK / GRAAVTFDT [GP_HC] the result was nd (0 of 6 replicates; controls 0 of 18).